US10683309B2, “Xanthine derivatives, their use as a medicament, and pharmaceutical preparations comprising the same” (MAX-DELBRÜCK-CENTRUM FÜR MOLEKULARE MEDIZIN, priority 2016, dated 2020)
Where two headings read alike, the source gives them in different places.

Chains of the proteins cited; added tags and fusions are not shown. Lines headed by an entry give the natural chain unless they say otherwise; changes in a name come on top.
UniProt P17752: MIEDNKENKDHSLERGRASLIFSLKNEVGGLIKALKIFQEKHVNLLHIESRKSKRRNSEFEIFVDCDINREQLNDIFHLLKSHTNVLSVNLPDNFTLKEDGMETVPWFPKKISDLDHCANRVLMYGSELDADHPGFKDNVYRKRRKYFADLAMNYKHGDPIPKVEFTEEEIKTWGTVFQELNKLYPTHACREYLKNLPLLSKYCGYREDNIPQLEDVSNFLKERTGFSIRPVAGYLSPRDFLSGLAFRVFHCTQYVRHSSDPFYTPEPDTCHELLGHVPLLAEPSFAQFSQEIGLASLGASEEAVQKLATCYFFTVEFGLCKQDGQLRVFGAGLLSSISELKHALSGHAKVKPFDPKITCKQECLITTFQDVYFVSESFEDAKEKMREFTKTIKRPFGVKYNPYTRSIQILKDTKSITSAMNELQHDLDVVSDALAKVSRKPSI

Target: recombinant human TPH1 (Swiss-Prot: P17752) (Homo sapiens (Human), UniProt P17752)
Assay: In vitro enzyme activity assay, fluorescence-based, TPH1 inhibition
[1] = read-out: IC50 TPH1 (μM) mean, recombinant human TPH1, 40 μM tryptophan, pH 7.0, mean of sample triplicates

Compound | IC50 [1] | IC50
CCn1c(=O)[nH]c(=O)c2c1nc(Cc1cn3c(n1)CCCC3)n2Cc1ccccc1 [Ex. 2, 7-benzyl-3-ethyl-8-((5,6,7,8-tetrahydroimidazo[1,2-a]pyridin-2-yl)methyl)-3,7-dihydro-1H-purine-2,6-dione] | 0.412 µM | –
CCn1c(=O)[nH]c(=O)c2c1nc(Cc1cn3c(n1)CCCC3)n2Cc1ccc(-c2ccccc2)cc1 [Ex. 3, 7-([1,1′-biphenyl]-4-ylmethyl)-3-ethyl-8-((5,6,7,8-tetrahydroimidazo[1,2-a]pyridin-2-yl)methyl)-3,7-dihydro-1H-purine-2,6-dione] | 0.338 µM | –
CCn1c(=O)[nH]c(=O)c2c1nc(Cc1cn3ccccc3n1)n2Cc1ccc(C(=O)OC)cc1 [Ex. 4, Methyl 4-((8-((H-imidazo[1,2-a]pyridin-2-yl)methyl)-3-ethyl-1,2,3,6-tetrahydro-2,6-dioxopurin-7-yl)methyl)benzoate] | 0.198 µM | –
CCn1c(=O)[nH]c(=O)c2c1nc(Cc1cn3ccccc3n1)n2Cc1ccc2c(c1)OCO2 [Ex. 5, 8-((H-imidazo[1,2-a]pyridin-2-yl)methyl)-7-((benzo[d][1,3]dioxol-5-yl)methyl)-3-ethyl-1H-purine-2,6(3H,7H)-dione] | 0.409 µM | –
CCn1c(=O)[nH]c(=O)c2c1nc(Cc1cn3ccccc3n1)n2Cc1ccc(C(=O)O)cc1 [Ex. 6, 4-((3-ethyl-8-(imidazo[1,2-a]pyridin-2-ylmethyl)-2,6-dioxo-1,2,3,6-tetrahydro-7H-purin-7-yl)methyl)benzoic acid] | 7.83 µM | –
CCn1c(=O)[nH]c(=O)c2c1nc(Cc1cn3ccccc3n1)n2Cc1ccc(-c2ccn(C)n2)cc1 [Ex. 7, 3-ethyl-8-(imidazo[1,2-a]pyridin-2-ylmethyl)-7-(4-(1-methyl-1H-pyrazol-3-yl)benzyl)-3,7-dihydro-1H-purine-2,6-dione] | 0.177 µM | –
CCn1c(=O)[nH]c(=O)c2c1nc(Cc1cn3ccccc3n1)n2Cc1ccc(-c2noc(C)n2)cc1 [Ex. 8, 7-(4-(5-methyl-1,2,4-oxadiazol-3-yl)benzyl)-8-((H-imidazo[1,2-a]pyridin-2-yl)methyl)-3-ethyl-1H-purine-2,6(3H,7H)-dione] | 0.219 µM | –
CCn1c(=O)[nH]c(=O)c2c1nc(Cc1cn3ccccc3n1)n2Cc1ccc(-c2ncccn2)cc1 [Ex. 9, 3-ethyl-8-(imidazo[1,2-a]pyridin-2-ylmethyl)-7-(4-(pyrimidin-2-yl)benzyl)-3,7-dihydro-1H-purine-2,6-dione] | 0.288 µM | –
CCn1c(=O)[nH]c(=O)c2c1nc(Cc1cn3ccccc3n1)n2Cc1ccc(-c2nccs2)cc1 [Ex. 10, 3-ethyl-8-(imidazo[1,2-a]pyridin-2-ylmethyl)-7-(4-(thiazol-2-yl)benzyl)-3,7-dihydro-1H-purine-2,6-dione] | 0.232 µM | –
CCn1c(=O)[nH]c(=O)c2c1nc(Cc1cn3ccccc3n1)n2Cc1ccc(-c2ccc(C(F)(F)F)cn2)cc1 [Ex. 11, 3-ethyl-8-(imidazo[1,2-a]pyridin-2-ylmethyl)-7-(4-(5-(trifluoromethyl)pyridin-2-yl)benzyl)-3,7-dihydro-1H-purine-2,6-dione] | – | 0.94 µM
CCn1c(=O)[nH]c(=O)c2c1nc(Cc1cn3ccccc3n1)n2Cc1ccc(-c2nc(C)no2)cc1 [Ex. 12, 3-ethyl-8-(imidazo[1,2-a]pyridin-2-ylmethyl)-7-(4-(3-methyl-1,2,4-oxadiazol-5-yl)benzyl)-3,7-dihydro-1H-purine-2,6-dione] | 0.487 µM | –
CCn1c(=O)[nH]c(=O)c2c1nc(Cc1cn3nc(C)sc3n1)n2Cc1ccccc1 [Ex. 13, 7-benzyl-3-ethyl-8-((2-methylimidazo[2,1-b][1,3,4]thiadiazol-6-yl)methyl)-3,7-dihydro-1H-purine-2,6-dione] | 0.213 µM | –
CCn1c(=O)[nH]c(=O)c2c1nc(Cc1cn3ccsc3n1)n2Cc1ccccc1 [Ex. 14, 7-benzyl-3-ethyl-8-(imidazo[2,1-b]thiazol-6-ylmethyl)-3,7-dihydro-1H-purine-2,6-dione] | 0.068 µM | –
CCn1c(=O)[nH]c(=O)c2c1nc(Cc1cn3ccsc3n1)n2Cc1ccc(-c2ccn(C)n2)cc1 [Ex. 15, 7-(4-(1-methyl-1H-pyrazol-3-yl)benzyl)-3-ethyl-8-((imidazo[2,1-b]thiazol-6-yl)methyl)-1H-purine-2,6(3H,7H)-dione] | 0.034 µM | –
CCn1c(=O)[nH]c(=O)c2c1nc(Cc1cn3cc(C)sc3n1)n2Cc1ccccc1 [Ex. 16, 7-benzyl-3-ethyl-8-((2-methylimidazo[2,1-b]thiazol-6-yl)methyl)-1H-purine-2,6(3H,7H)-dione] | 0.054 µM | –
CCn1c(=O)[nH]c(=O)c2c1nc(Cc1cn3cc(C)sc3n1)n2Cc1ccc(-c2ccn(C)n2)cc1 [Ex. 17, 3-ethyl-7-(4-(1-methyl-1H-pyrazol-3-yl)benzyl)-8-((2-methylimidazo[2,1-b]thiazol-6-yl)methyl)-3,7-dihydro-1H-purine-2,6-dione] | 0.084 µM | –
CCn1c(=O)[nH]c(=O)c2c1nc(Cc1cn3c(n1)CCCC3)n2Cc1ccc(-c2ccn(C)n2)cc1 [Ex. 18, 7-(4-(1-methyl-1H-pyrazol-3-yl)benzyl)-3-ethyl-8-((5,6,7,8-tetrahydroimidazo[1,2-a]pyridin-2-yl)methyl)-1H-purine-2,6(3H,7H)-dione] | 0.209 µM | –
CCn1c(=O)[nH]c(=O)c2c1nc(Cc1cn3ccccc3n1)n2Cc1ccc(CC(=O)OC)cc1 [Ex. 19, methyl 2-(4-((3-ethyl-8-(imidazo[1,2-a]pyridin-2-ylmethyl)-2,6-dioxo-1,2,3,6-tetrahydro-7H-purin-7-yl)methyl)phenyl)acetate] | 0.763 µM | –
CCn1c(=O)[nH]c(=O)c2c1nc(Cc1cn3cc(Cl)sc3n1)n2Cc1ccc(-c2ccn(C)n2)cc1 [Ex. 20, 8-((2-chloroimidazo[2,1-b]thiazol-6-yl)methyl)-3-ethyl-7-(4-(1-methyl-1H-pyrazol-3-yl)benzyl)-3,7-dihydro-1H-purine-2,6-dione] | 0.225 µM | –
CCn1c(=O)[nH]c(=O)c2c1nc(Cc1cn3cc(Cl)sc3n1)n2Cc1ccccc1 [Ex. 21, 7-benzyl-8-((2-chloroimidazo[2,1-b]thiazol-6-yl)methyl)-3-ethyl-3,7-dihydro-1H-purine-2,6-dione] | 0.162 µM | –
O=c1[nH]c(=O)n(C2CC2)c2nc(Cc3cn4ccccc4n3)n(Cc3ccccc3)c12 [Ex. 22, 7-benzyl-3-cyclopropyl-8-(imidazo[1,2-a]pyridin-2-ylmethyl)-3,7-dihydro-1H-purine-2,6-dione] | 0.802 µM | –
CCn1c(=O)[nH]c(=O)c2c1nc(Cc1cn3ccccc3n1)n2Cc1ccc(CCO)cc1 [Ex. 23, 3-ethyl-7-(4-(2-hydroxyethyl)benzyl)-8-(imidazo[1,2-a]pyridin-2-ylmethyl)-3,7-dihydro-1H-purine-2,6-dione] | 2.06 µM | –
CCn1c(=O)[nH]c(=O)c2c1nc(Cc1cn3ccccc3n1)n2Cc1ccc(CC(=O)O)cc1 [Ex. 24, 2-(4-((3-ethyl-8-(imidazo[1,2-a]pyridin-2-ylmethyl)-2,6-dioxo-1,2,3,6-tetrahydro-7H-purin-7-yl)methyl)phenyl)acetic acid] | 134 µM | –
CCn1c(=O)[nH]c(=O)c2c1nc(Cc1cn3cc(C)sc3n1)n2Cc1ccc(F)cc1 [Ex. 26, 3-ethyl-7-(4-fluorobenzyl)-8-((2-methylimidazo[2,1-b]thiazol-6-yl)methyl)-3,7-dihydro-1H-purine-2,6-dione] | 0.217 µM | –
CCn1c(=O)[nH]c(=O)c2c1nc(Cc1cn3cc(C)sc3n1)n2Cc1ccc(OC)cc1 [Ex. 27, 3-ethyl-7-(4-methoxybenzyl)-8-((2-methylimidazo[2,1-b]thiazol-6-yl)methyl)-3,7-dihydro-1H-purine-2,6-dione] | 0.133 µM | –
